# OPERA 2.9 data: water solubility values

Solubility in water is on a log10 molar scale (set defined at 25 °C).
"n/a" marks a cell with nothing listed here.

log S (log10 mol/L)	SMILES	name
-6.838	CC1(OC(=O)c2ccccc2C(=O)OC2(C)CCCCC2)CCCCC1	Bis(1-methylcyclohexyl) benzene-1,2-dicarboxylate
-1.082	O=C(O)[C@@H](O)Cc1c[nH]c2ccccc12	L-Indole-3-lactic acid
-2.356	CCCCCCCC(O)C(O)C(=O)O (configuration not stated)	2,3-Dihydroxydecanoic acid
-4.006	C[C@H]1[C@H](NC(=O)/C(=N\OC(C)(C)C(=O)O)c2csc(N)n2)C(=O)N1S(=O)(=O)O	Aztreonam
-7.33	Clc1ccc(Oc2c(Cl)cc(Cl)cc2Cl)c(Cl)c1	2,2',4,4',6-Pentachlorodiphenyl ether
-0.173	CCOCOCC	Diethoxymethane
-1.489	CN(C)C(=O)Nc1ccc(F)cc1	Urea, 1,1-dimethyl-3-(p-fluorophenyl)-
-7.606	CC(C)OC(=S)SSC(=S)OC(C)C	2,2'-[Disulfanediylbis(carbonothioyloxy)]dipropane
-2.286	NC(=O)CC(CC(=O)O)c1ccc(Cl)cc1 (configuration not stated)	3-(4-Chlorophenyl)glutaramic acid
-7.76	Clc1ccc(Oc2c(Cl)c(Cl)cc(Cl)c2Cl)cc1	2,3,4',5,6-Pentachlorodiphenylether
-0.83	C=CCSS(=O)CC=C (configuration not stated)	Allicin
-0.539	O=C(O)Cc1ccccc1O	2-Hydroxyphenylacetic acid
0.014	CO[C@H]1O[C@H](C(=O)O)[C@H](O)[C@H](O)[C@H]1O	Methyl alpha-D-galactopyranosiduronic acid
-2.577	Cn1c(=O)c2[nH]c(=O)[nH]c2n(C)c1=O	1,3-Dimethyluric acid
-2.759	Nc1ccc(S(=O)(=O)Nc2ccc(S(N)(=O)=O)cc2)cc1	4-Amino-N-(4-sulfamoylphenyl)benzene-1-sulfonamide
-0.353	NC(CC1CCC(O)CC1)C(=O)O (configuration not stated)	2-Amino-3-(4-hydroxycyclohexyl)propanoic acid
-8.89	Clc1cc(Oc2c(Cl)ccc(Cl)c2Cl)c(Cl)c(Cl)c1Cl	2,2',3,3',4,5,6'-Heptachloro-diPh ether
-1.593	CC(CCC(=O)O)=NNC(=O)c1ccncc1	4-[2-(Pyridine-4-carbonyl)hydrazinylidene]pentanoic acid
-7.02	Clc1cc(Cl)c(Cl)c(Oc2ccccc2)c1Cl	n/a
-1.937	O=C(O)Cc1ccc([N+](=O)[O-])cc1	4-Nitrophenylacetic acid
-3.345	Nc1nc2ncnc(N)c2nc1N	4,6,7-Pteridinetriamine
-9.21	Nc1ccc(Nc2ccccc2)c2c1C(=O)c1ccccc1C2=O	C.I. Solvent Blue 68
-0.635	CN(C)C(=O)Nc1ccc(SC(F)(F)Cl)c(Cl)c1	n/a
-2.565	CC=C(Cc1ccccc1)C(=O)O	2-Benzyl-crotonic acid
-3.32	CO/N=C(\C(=O)N[C@H]1C(=O)N2C(C(=O)O)=C(COC(N)=O)CS[C@@H]12)c1ccco1	Cefuroxime
-0.91	CCCCCCCCOC(=O)C(C)OC(C)=O (configuration not stated)	octyl 2-acetyloxypropanoate
-5.36	CC(=O)Nc1ccc(/N=N/c2cc(C)ccc2O)cc1	C.I. Disperse Yellow 3
-2.709	Nc1ncnc2c1ncn2Cc1ccccc1	9-Benzyladenine
-4.59	O=C1N=C2C(=O)NC(=O)N=C2C(=O)N1	Pyrimido[5,4-d]pyrimidine-2,4,6,8(3H,7H)-tetrone
-4.341	O=C(N/N=C/C=C/c1ccc([N+](=O)[O-])o1)c1ccc([N+](=O)[O-])o1	n/a
-2.519	C[C@H](O)[C@H](O)c1c[nH]c2nc(N)nc(=O)c-2n1	Biopterin
-2.662	CC(=O)OC[C@@H](OC(C)=O)[C@H]1OC(OC(C)=O)[C@H](OC(C)=O)[C@H]1OC(C)=O (stereo partly drawn)	D-Glucofuranose pentaacetate
-6.382	O=C(O)C(F)(F)C(F)(F)C(F)(F)C(F)(F)C(F)(F)C(F)(F)C(F)(F)C(F)(F)C(F)(F)C(F)(F)C(F)(F)C(F)(F)C(F)(F)F	Perfluorotetradecanoic acid
-1.887	COc1cc(CO)ccc1O	Vanillyl alcohol
-1.846	CCC1CCC2(CCC(CC)O2)O1 (configuration not stated)	2,7-Diethyl-1,6-dioxaspiro[4.4]nonane
-0.972	CC(O)(CCC(C)(O)C(=O)O)C(=O)O (configuration not stated)	2,5-Dihydroxy-2,5-dimethyl-adipic acid
-7.263	CC(=O)C(N=Nc1cc(C(=O)Nc2cc(Cl)ccc2C)ccc1Cl)C(=O)Nc1cc(C)c(NC(=O)C(N=Nc2cc(C(=O)Nc3cc(Cl)ccc3C)ccc2Cl)C(C)=O)cc1C (configuration not stated)	C.I. Pigment Yellow 95
-1.729	Nc1ncnc2c1ncn2[C@@H]1O[C@H](CO)[C@@H](O)[C@H]1O	Adenosine
-7.051	COc1ccc(NC(=O)c2cc3ccccc3c(/N=N/c3cc(C(=O)Nc4ccc(S(=O)(=O)[O-])cc4)ccc3C)c2O)cc1.COc1ccc(NC(=O)c2cc3ccccc3c(/N=N/c3cc(C(=O)Nc4ccc(S(=O)(=O)[O-])cc4)ccc3C)c2O)cc1.[Ca+2]	n/a
-0.395	CCC(=O)CC(=O)C(=O)O	2,4-Dioxohexanoic acid
-1.128	C=C(Nc1ccc(OCC)cc1)Nc1ccc(OCC)cc1	Phenacaine
-1.311	O=C(O)CNCCNCC(=O)O	Glycine, N,N'-1,2-ethanediylbis-
-0.006	OC[C@H]1OC2(COC3(CO2)O[C@H](CO)[C@@H](O)[C@@H]3O)[C@@H](O)[C@@H]1O (stereo partly drawn)	Di-D-Fructofuranose 1,2':2,1'-dianhydride
-7.56	Clc1ccc(Cl)c(Oc2cc(Cl)c(Cl)cc2Cl)c1	2,2',4,5,5'-Pentachlorodiphenyl ether
-6.77	Clc1ccc(Oc2cc(Cl)ccc2Cl)c(Cl)c1	n/a
-3.895	CN1CCN(CCCN2c3ccccc3Sc3ccc(S(=O)(=O)N(C)C)cc32)CC1	Thioproperazine
-3.403	NC(=O)C(=O)N(CCO)/N=C/C=C/c1ccc([N+](=O)[O-])o1	n/a
0.38	Cc1cccnc1C	2,3-Dimethylpyridine
-0.915	N#CCC(=O)N1CCCCC1	1-(Cyanoacetyl)piperidine
-6.56	Clc1ccc(Oc2c(Cl)cccc2Cl)cc1Cl	Benzene, 1,3-dichloro-2-(3,4-dichlorophenoxy)-
-5.197	CC(=O)Oc1cc2c(s1)CCN(C(C(=O)C1CC1)c1ccccc1F)C2 (configuration not stated)	Prasugrel
-2.232	CC(=O)OCCc1ccccc1	2-Phenylethyl acetate

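The numbers are reported measurements, compiled and curated for the OPERA QSAR suite. The files give a single number for a compound and property, which may rest on several reports. How each value was measured is not recorded, so precision varies. The measured form (salt, isomer or mixture) is not always the one drawn. Some entries may be limits or estimates that an upstream database listed as plain numbers.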

From the experimental data distributed with OPERA 2.9.